Assay results reported in PubChem BioAssay AID2551 (National Center for Advancing Translational Sciences (NCATS), 2010).
This is a selection; strong and weak results do not stand in their true shares. Inconclusive results are not listed. The source made the active and inactive calls. The call rests on the fitted dose curve; in most records, active means well fitted inhibition curve with a large enough effect; inconclusive means small, poorly fitted or top-dose-only effect, or effect the other way; inactive means no such curve, though single readings can be large or run the other way.

Amino acid sequences for entries named in this document (tags omitted).
UniProt P51450, whole entry: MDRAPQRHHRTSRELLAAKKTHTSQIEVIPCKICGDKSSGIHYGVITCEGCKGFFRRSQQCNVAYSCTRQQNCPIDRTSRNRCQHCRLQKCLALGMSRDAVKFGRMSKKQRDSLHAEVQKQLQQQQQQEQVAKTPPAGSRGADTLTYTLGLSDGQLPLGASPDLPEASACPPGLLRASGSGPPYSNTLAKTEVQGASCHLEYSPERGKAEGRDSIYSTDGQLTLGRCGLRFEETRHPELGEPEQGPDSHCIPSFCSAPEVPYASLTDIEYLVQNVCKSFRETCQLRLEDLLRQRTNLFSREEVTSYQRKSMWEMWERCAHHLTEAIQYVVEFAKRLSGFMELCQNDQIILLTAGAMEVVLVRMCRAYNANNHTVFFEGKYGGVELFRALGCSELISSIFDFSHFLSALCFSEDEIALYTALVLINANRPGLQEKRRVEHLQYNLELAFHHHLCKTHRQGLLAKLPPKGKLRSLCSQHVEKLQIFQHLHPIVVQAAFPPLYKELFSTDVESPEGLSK

target: Nuclear receptor ROR-gamma (Mus musculus) (UniProt P51450); experiment: qHTS for inhibitors of ROR gamma transcriptional activity; conditions: Drosophila S2 Gal4-RORgamma UAS-luciferase reporter, 20 h; series mostly up to 53.6 µM; activity change, negative = inhibition: at the top concentration; further: nearly all actives have a fitted effect of over 60% in size
On the % scale 0 is the no-effect control and ±100 the full control effect; potency means the concentration at half of the fitted maximal effect.

| Structure (SMILES) | activity change, negative = inhibition | Potency |
| --- | --- | --- |
| COc1ccc(OP(C)(=O)Nc2cccc(Br)c2)cc1 (configuration not stated) | inactive: 6.8% |  |
| COc1ccc(NP(C)(=O)Oc2ccccc2OC)cc1 (configuration not stated) | inactive: -22.3% |  |
| CN(C)CCOC(=O)C(O)(c1ccccc1)C1CCCCC1 (configuration not stated) | inactive: -42.2% |  |
| Cc1ccc([N+](=O)[O-])c([N+](=O)[O-])c1 | inactive: -14.3% |  |
| O=[N+]([O-])c1ccc(OP2(=O)COCCO2)cc1 (configuration not stated) | inactive: -0.677% |  |
| CP(=O)(Nc1ccc(SC(F)(F)F)cc1)Oc1ccc(F)cc1 (configuration not stated) | inactive: 7.48% |  |
| CCOP(=O)(CC)OCC | inactive: -3.78% |  |
| CCOP(C)(=S)SCC(=O)NC(C)(CC)C(=O)O (configuration not stated) | inactive: -29.2% |  |
| CP(=O)(Nc1ccc2c(c1)OCCO2)Oc1ccccc1 (configuration not stated) | inactive: -5.67% |  |
| CCN(CCCl)Cc1ccccc1C | inactive: -11.6% |  |
| Cc1ccccc1NP(C)(=O)Nc1ccccc1C | inactive: 14.1% [at 0.365 µM] |  |
| CC(C)c1ccc(OP(C)(=O)Nc2ccc(SC(F)(F)F)cc2)cc1 (configuration not stated) | inactive: 18.6% |  |
| CP(=O)(Nc1ccccc1F)Oc1ccccc1 (configuration not stated) | inactive: 8.85% |  |
| O=C(OCCN1CCN(CCOCc2ccccc2)CC1)C(O)(c1ccccc1)c1ccccc1 | inactive: 15.6% |  |
| Cc1cccc([N+](=O)[O-])c1[N+](=O)[O-] | inactive: -1.47% |  |
| CCC(C)(OO)OOC(C)(CC)OO (configuration not stated) | inactive: -3.36% |  |
| COc1ccc(OP(C)(=O)Nc2ccc(SC(F)(F)F)cc2)cc1 (configuration not stated) | inactive: -7.03% |  |
| CCOC(=O)c1ccc(NP(C)(=O)Oc2ccc(F)cc2)cc1 (configuration not stated) | inactive: -20.4% |  |
| CCN(CC)CCCOC(=O)C(O)(c1ccccc1)C1CCCCC1 (configuration not stated) | inactive: -23.3% |  |
| CP(=O)(Nc1ccccc1)Oc1ccc(F)cc1 (configuration not stated) | inactive: 6.28% |  |
| Cc1cc(C)cc(OP(C)(=O)Nc2cccc(C(F)(F)F)c2)c1 (configuration not stated) | inactive: -1.03% |  |
| COc1ccc(OP(C)(=O)Nc2ccccc2Br)cc1 (configuration not stated) | inactive: 13.8% |  |

| Structure (SMILES) | activity change, negative = inhibition | Potency |
| --- | --- | --- |
| COc1ccccc1OP(C)(=O)Nc1ccc(C)c(C)c1 (configuration not stated) | inactive: 16.9% |  |
| CP(=O)(OCCOc1ccccc1)OCCOc1ccccc1 | inactive: 14.8% |  |
| CP(=O)(Nc1ccc(Cl)cc1Cl)Oc1ccccc1 (configuration not stated) | inactive: -2.73% |  |
| COc1ccccc1OP(C)(=O)Nc1ccc(Br)cc1 (configuration not stated) | inactive: 23.3% |  |
| CN(C)CCOC(=O)C(O)(c1ccccc1)C1CCCC1 (configuration not stated) | inactive: 3.14% |  |
| COc1ccc(OP(C)(=O)Nc2ccccn2)cc1 (configuration not stated) | inactive: 0.0322% |  |
| O=[N+]([O-])c1cc([N+](=O)[O-])c(Nc2ccccn2)c([N+](=O)[O-])c1 | inactive: -16.3% |  |
| CCc1ccc(OP(C)(=O)O)cc1 | inactive: -3.54% |  |
| COc1ccccc1OP(C)(=O)Nc1ccc(C)cc1C (configuration not stated) | inactive: 8.21% |  |
| CP(=O)(Nc1ccccn1)Oc1ccccc1 (configuration not stated) | inactive: -12% [at 0.365 µM] |  |
| COc1ccc(OP(C)(=O)Nc2ccc(Br)cc2)cc1 (configuration not stated) | inactive: 12.8% |  |
| CCN(CC)CC(O)COC(=O)C(O)(c1ccccc1)C1CCCCC1 (configuration not stated) | inactive: -5.15% |  |
| CCc1ccc(OP(C)(=O)Nc2cccnc2)cc1 (configuration not stated) | inactive: 16.6% |  |
| CP(=O)(Oc1ccccc1)N1CCOC1=O (configuration not stated) | inactive: 1.42% |  |
| O=C(OCCCN1CCCC1)C(O)(c1ccccc1)C1CCCCC1 (configuration not stated) | inactive: -15.3% |  |
| OCCSCCO | inactive: 41.1% |  |
| COc1ccccc1OP(C)(=O)Nc1c(C)n(C)n(-c2ccccc2)c1=O (configuration not stated) | inactive: -1.03% |  |
| CP(=O)(Nc1ccc(Cl)cc1)Oc1ccc(F)cc1 (configuration not stated) | inactive: -2.07% |  |
| CC(C)(C)c1ccc(OP(C)(=O)O)cc1 | inactive: -19.6% |  |
| COc1ccccc1OP(C)(=O)Nc1ccccc1Br (configuration not stated) | inactive: -6.1% |  |
| CN(C)C(=O)c1c([N+](=O)[O-])cc([N+](=O)[O-])cc1[N+](=O)[O-] |  | active: 3.55 µM |
| CP(=O)(OC12CC3CC(CC(C3)C1)C2)OC12CC3CC(CC(C3)C1)C2 | inactive: -41.7% |  |

| Structure (SMILES) | activity change, negative = inhibition | Potency |
| --- | --- | --- |
| CCOC(=O)c1ccc(NP(C)(=O)Oc2ccc(Cl)cc2)cc1 (configuration not stated) | inactive: 36.4% |  |
| CC(C)OP(=O)(F)OC(C)C | inactive: -0.991% |  |
| C/C1=C2N=C(/C=C3N=C(/C(C)=C4\[N-][C@@](C)([C@H]5N=C1[C@@](C)(CCC(=O)NC[C@H](C)OP(=O)([O-])O[C@@H]1[C@H](O)[C@H](n6cnc7cc(C)c(C)cc76)O[C@@H]1CO)[C@@H]5CC(N)=O)[C@](C)(CC(N)=O)[C@H]4CCC(N)=O)[C@@](C)(CC(N)=O)[C@@H]\3CCC(N)=O)C(C)(C)[C@@H]/2CCC(N)=O.[C-]#N.[Co+3] | inactive: 1.51% [at 2.98 µM] |  |
| CP(=S)(Nn1cnnc1)Oc1ccccc1 (configuration not stated) | inactive: -20.5% |  |
| COc1ccccc1OP(C)(=O)Nc1ccccc1 (configuration not stated) | inactive: 6.11% |  |
| CP(=O)(Nc1ccccc1Br)Oc1ccccc1 (configuration not stated) | inactive: 11.1% |  |
| CP(=O)(Oc1ccccc1)OC(c1ccccc1)C(F)(F)F (configuration not stated) | inactive: 10.7% |  |
| CP(=O)(Nc1ccc(SC(F)(F)F)cc1)Oc1ccc(Cl)cc1 (configuration not stated) | inactive: 10.1% |  |
| Cc1cc(C)cc(OP(C)(=O)Nc2ccc(SC(F)(F)F)cc2)c1 (configuration not stated) | inactive: -3.13% |  |
| CCc1ccc(OP(C)(=O)N2CCN(c3ccc([N+](=O)[O-])cc3)CC2)cc1 (configuration not stated) | inactive: 29.4% |  |
| CP(=O)(NC(=O)Nc1ccccc1)Oc1ccccc1 (configuration not stated) | inactive: -9.16% [at 10 µM] |  |
| CCOP(C)(=S)SCC(=O)NC(C)C(=O)O (configuration not stated) | inactive: -7.35% |  |
| CN(C)CCS | inactive: 25.1% |  |
| CCOC(=O)c1ccc(NP(C)(=O)Oc2ccc(OC)cc2)cc1 (configuration not stated) | inactive: 27.1% |  |
| CP(=O)(Nc1ccccn1)Oc1ccc(Cl)cc1 (configuration not stated) | inactive: -0.119% |  |
| CCN(CC)CCCOC(=O)C(O)(c1ccccc1)c1ccccc1 | inactive: 2.28% |  |
| O=C(O)C(O)(c1ccccc1)c1ccccc1 | inactive: -0.574% |  |
| Cc1cccc(C)c1OP(C)(N)=O (configuration not stated) | inactive: -4.49% |  |
| O=[N+]([O-])c1ccc2c(c1)C=Nc1ccccc1O2 | inactive: 26.5% |  |
| CCOC(=O)c1ccc(NP(C)(=O)Oc2ccccc2)cc1 (configuration not stated) | inactive: 33% |  |
| Cc1ccc(NP(C)(=O)Oc2ccccc2)c(C)c1 (configuration not stated) | inactive: -2.13% |  |
| COc1ccccc1OP(C)(=O)Nc1ccc(C)cc1 (configuration not stated) | inactive: 9.37% |  |

| Structure (SMILES) | activity change, negative = inhibition | Potency |
| --- | --- | --- |
| COc1ccc(OP(C)(=O)Nc2cccc(F)c2)cc1 (configuration not stated) | inactive: 29.1% |  |
| COc1ccccc1OP(C)(=O)Nc1cc(Cl)ccc1C (configuration not stated) | inactive: -0.889% |  |
| Cc1cc(C)cc(OP(C)(N)=O)c1 (configuration not stated) | inactive: 8.76% |  |
| O=[N+]([O-])c1cccc([N+](=O)[O-])c1 | inactive |  |
| Cc1ccc([N+](=O)[O-])cc1[N+](=O)[O-] | inactive: -10.9% |  |
| O=[N+]([O-])OCC(CO[N+](=O)[O-])(CO[N+](=O)[O-])CO[N+](=O)[O-] | inactive: 33.6% |  |
| CC1=NCCc2c1[nH]c1ccccc21.O=[N+]([O-])c1cc([N+](=O)[O-])c(O)c([N+](=O)[O-])c1 | inactive: 0.787% [at 10 µM] |  |
| COc1ccccc1OP(C)(=O)Nc1cccc(Br)c1 (configuration not stated) | inactive: 10.8% |  |
| Cc1cc(C)cc(OP(C)(=O)Nc2ccc(C)cc2C)c1 (configuration not stated) | inactive: 2.94% |  |
| CCOC(=O)c1ccc(NP(C)(=O)Oc2cc(C)cc(C)c2)cc1 (configuration not stated) | inactive: 16.5% |  |
| CP(=O)(Nc1cccc(Br)c1)Oc1ccccc1 (configuration not stated) | inactive: 2.59% |  |
| Cc1cc(C)cc(OP(C)(=O)Nc2ccccn2)c1 (configuration not stated) | inactive: -3.89% |  |
| Cc1ccc(C)c(NP(C)(=O)Oc2ccccc2)c1 (configuration not stated) | inactive: -8.23% |  |
| O=[N+]([O-])c1cc([N+](=O)[O-])c(-n2nnc3ccccc32)c([N+](=O)[O-])c1 | inactive: -18.7% |  |
| CC(C)N(CCCl)C(C)C | inactive: -3.98% |  |
| Cc1nc2ccc3ccccc3c2s1.O=[N+]([O-])c1cc([N+](=O)[O-])c(O)c([N+](=O)[O-])c1 | inactive: 10.5% |  |
| O=[N+]([O-])c1cc([N+](=O)[O-])c(Nc2nnnn2CCO)c([N+](=O)[O-])c1 | inactive: -7.97% |  |
| CN1CCCCC1COC(=O)C1(O)c2ccccc2CCc2ccccc21 (configuration not stated) | inactive: -23.3% |  |
| COc1ccccc1OP(C)(=O)Nc1c(C)cccc1C (configuration not stated) | inactive: 3.88% |  |
| CP(=O)(Nc1ccc(SC(F)(F)F)cc1)Oc1ccccc1 (configuration not stated) | inactive: 39.4% |  |
| CCCOc1ccc(NP(C)(=O)Oc2ccc(Cl)cc2)cc1 (configuration not stated) | inactive: 11.6% |  |
